Measurements from patent publication US20220249814A1, “METHODS AND DEVICES FOR TREATING A DISEASE WITH BIOTHERAPEUTICS” (PROGENITY, INC., priority 2018, published 2022).

Assay: Example 3 blood insulin pharmacokinetics after SC or intra-jejunal jet delivery
Type: in vivo, Yorkshire female swine

## Novolin® R: regular human insulin (NOVOLIN® R)
IJ administration by jet delivery device (~40 U), animal 18P14
  Tmax blood insulin: 1.25 h
SC administration, animal 18P21
  Tmax blood insulin: 1.25 h
